Laboratory results as given in patent EP3970494A1 (priority 2020, dated 2022).

Assays:
Phakopsora pachyrhizi [1] = test: Protective control of soybean rust on soybeans, inoculation 2 days after treatment (PHAKPA P2); format: in vivo; conditions: soybean seedlings inoculated 2 days after treatment, strain with F129L in cytochrome b, % diseased leaf area, untreated controls usually higher than 85 %; for PHAKPA Disease level (%) P2 at 4 ppm: 4 ppm spray; for PHAKPA Disease level (%) P2 at 16 ppm: 16 ppm spray
Phakopsora pachyrhizi [2] = test: Protective control of soybean rust on soybeans, inoculation six days after treatment (PHAKPA P6); format: in vivo; conditions: soybean seedlings inoculated six days after treatment, strain with F129L in cytochrome b, % diseased leaf area, untreated controls usually higher than 85 %; for PHAKPA Disease level (%) P6 at 4 ppm: 4 ppm spray; for PHAKPA Disease level (%) P6 at 16 ppm: 16 ppm spray

| Compound | PHAKPA Disease level (%) P2 at 4 ppm (Phakopsora pachyrhizi [1]) | PHAKPA Disease level (%) P2 at 16 ppm (Phakopsora pachyrhizi [1]) | PHAKPA Disease level (%) P6 at 4 ppm (Phakopsora pachyrhizi [2]) | PHAKPA Disease level (%) P6 at 16 ppm (Phakopsora pachyrhizi [2]) |
| --- | --- | --- | --- | --- |
| CO/N=C(/C(=O)OC)c1cccc(C)c1CO/N=C(\C)c1cc(-c2ccc(F)cc2)on1 [Example 14] | 97% | 77% | 87% | 65% |
| CNC(=O)/C(=N/OC)c1cccc(C)c1CO/N=C(\C)c1cccc(F)n1 [Example 107] | 18% | 0% | 53% | 6% |
| CO/N=C(/C(=O)OC)c1cccc(C)c1CO/N=C(/c1nccs1)C1CC1 [Example 109] | 100% | 100% | 87% | 90% |
| CO/N=C(/C(=O)OC)c1cccc(C)c1CO/N=C(\C)c1ncccc1F [Example 74] | 97% | 28% | 80% | 67% |
| CNC(=O)/C(=N/OC)c1cccc(C)c1CO/N=C(\C)c1cc(C(F)F)ccn1 [Example 37] | 20% | 4% | 52% | 11% |
| CO/N=C(/C(=O)OC)c1cccc(C(F)(F)F)c1CO/N=C(\C)c1cccc(C(F)(F)F)n1 [Example 13] | 93% | 90% | 87% | 83% |
| CNC(=O)/C(=N/OC)c1cccc(C)c1CO/N=C(\C)c1cc(C(F)F)nc(C)n1 [Example 62] | 48% | 7% | 67% | 12% |
| CO/N=C(/C(=O)OC)c1cccc(C)c1CO/N=C(\C)c1cc(C(F)(F)F)ccn1 [Example 4, Methyl (2E)-2-methoxyimino-2-[3-methyl-2-[[(E)-1-[4-(trifluoromethyl)-2-pyridyl]ethylideneamino]oxymethyl]phenyl]acetate] | 3% | 0% | 4% | 0% |
| CO/N=C(/C(=O)OC)c1cccc(C)c1CO/N=C(\C)c1ccc(C#CC2CC2)cn1 [Example 111] | 67% | 20% | 67% | 17% |
| CNC(=O)/C(=N/OC)c1cccc(C)c1CO/N=C(\C)c1cc(C(F)(F)F)cc(C#N)n1 [Example 86] | 100% | 90% | 97% | 77% |
| CNC(=O)/C(=N/OC)c1cccc(C)c1CO/N=C(\C)c1ncccc1F [Example 77] | 26% | 4% | 53% | 10% |
| CO/N=C(/C(=O)OC)c1cccc(C)c1CO/N=C(\C)c1ccncc1 [Example 130] | 90% | 87% | 78% | 70% |
| CO/N=C(/C(=O)OC)c1cccc(C)c1CO/N=C(\C)c1cc(C(F)(F)F)nn1C [Example 117, Methyl (2E)-2-methoxyimino-2-[3-methyl-2-[[(E)-1-[2-methyl-5-(trifluoromethyl)pyrazol-3-yl]ethylideneamino]oxymethyl]phenyl]acetate] | 100% | 57% | 100% | 83% |
| CNC(=O)/C(=N/OC)c1cccc(C)c1CO/N=C(\C)c1cc(C(F)(F)F)nc(OC)n1 [Example 120] | 12% | 5% | 25% | 6% |
| CNC(=O)/C(=N/OC)c1cccc(C)c1CO/N=C(/c1nccs1)C(F)F [Example 154] | 100% | 33% | 100% | 90% |
| CNC(=O)/C(=N/OC)c1cccc(C)c1CO/N=C(\C)c1cnc(Cl)c(Cl)c1 [Example 88] | 73% | 20% | 93% | 28% |

| Compound | PHAKPA Disease level (%) P2 at 4 ppm (Phakopsora pachyrhizi [1]) | PHAKPA Disease level (%) P2 at 16 ppm (Phakopsora pachyrhizi [1]) | PHAKPA Disease level (%) P6 at 4 ppm (Phakopsora pachyrhizi [2]) | PHAKPA Disease level (%) P6 at 16 ppm (Phakopsora pachyrhizi [2]) |
| --- | --- | --- | --- | --- |
| CO/N=C(/C(=O)OC)c1cccc(C)c1CO/N=C(\C)c1cc(C(F)(F)F)ncn1 [Example 113, Methyl (2E)-2-methoxyimino-2-[3-methyl-2-[[(E)-1-[6-(trifluoromethyl)pyrimidin-4-yl]ethylideneamino]oxymethyl]phenyl]acetate] | 28% | 7% | 20% | 4% |
| C=Cc1cc(C(F)(F)F)cc(/C(C)=N/OCc2c(C)cccc2/C(=N\OC)C(=O)OC)n1 [Example 116, Methyl (2E)-2-methoxvimino-2-[3-methyl-2-[[(E)-1-[4-(trifluoromethyl)-6-vinyl-2-pyridyl]ethylideneamino]oxymethyl]phenyl]acetate] | 83% | 28% | 70% | 28% |
| CNC(=O)/C(=N/OC)c1cccc(C)c1CO/N=C(\C)c1cc(C(F)(F)F)ccn1 [Example 5, (2E)-2-methoxyimino-N-methyl-2-[3-methyl-2-[[(E)-1-[4-(trifluoromethyl)-2-pyridyl]-ethylideneamino]oxymethyl]phenyl]acetamide] | 1% | 0% | 2% | 0% |
| CNC(=O)/C(=N/OC)c1cccc(C)c1CO/N=C(\C)c1cccc(C(F)(F)F)n1 [Example 2] | 67% | 17% | 59% | 27% |
| CNC(=O)/C(=N/OC)c1cccc(C)c1CO/N=C(\C)c1cc(-c2ccc(F)cc2)on1 [Example 15] | 53% | 4% | 63% | 13% |
| CNC(=O)/C(=N/OC)c1cccc(C)c1CO/N=C(\C)c1cccc(/C(C)=N/OC)n1 [Example 32] | 70% | 13% | 70% | 20% |
| CO/N=C(/C(=O)OC)c1cccc(C)c1CO/N=C(\C)c1cc(-c2ccc(F)cc2)sn1 [Example 11, Methyl (2E)-2-[2-[[(E)-1-[5-(4-fluorophenyl)isothiazol-3-yl]ethylideneamino]oxymethyl]-3-methyl-phenyl]-2-methoxyimino-acetate] | 50% | 8% | 37% | 7% |
| CNC(=O)/C(=N/OC)c1cccc(C)c1CO/N=C(\C)c1cc(-c2cccc(C(F)(F)F)c2)sn1 [Example 39] | 40% | 15% | 40% | 4% |
| CO/N=C(/C(=O)OC)c1cccc(C)c1CO/N=C(\C)c1cc(C(F)(F)F)nc(C)n1 [Example 57] | 100% | 12% | 93% | 12% |
| CO/N=C(/C(=O)OC)c1cccc(C)c1CO/N=C(\C)c1ncccc1C(F)F [Example 24] | 87% | 33% | 93% | 53% |
| CNC(=O)/C(=N/OC)c1cccc(C)c1CO/N=C(\C)c1cn(C)nc1C(F)F [Example 50] | 97% | 47% | 83% | 67% |
| CNC(=O)/C(=N/OC)c1cccc(C)c1CO/N=C(\C)c1cc(-c2ccccc2)on1 [Example 23] | 47% | 5% | 80% | 7% |
| CO/N=C(/C(=O)OC)c1cccc(C)c1CO/N=C(\C)c1cccnc1 [Example 131] | 90% | 60% | 82% | 40% |
| CNC(=O)/C(=N/OC)c1cccc(C)c1CO/N=C(\C)c1cn(C)nc1C(F)(F)F [Example 52] | 77% | 17% | 73% | 37% |
| CO/N=C(/C(=O)OC)c1cccc(C)c1CO/N=C(/c1cc(C(F)(F)F)ccn1)C1CC1 [Example 72, Methyl (2E)-2-[2-[[(E)-[cyclopropyl-[4-(trifluoromethyl)-2-pyridyl]methylene]amino]-oxymethyl]-3-methyl-phenyl]-2-methoxyimino-acetate] | 70% | 22% | 77% | 18% |
| CO/N=C(/C(=O)OC)c1cccc(C)c1CO/N=C(\C)c1ccc(Cl)c(C(F)(F)F)c1 [Example 82] |  | 20% |  |  |
